Experimental findings from patent US20090117153A1 are described below.

Amino acid sequences for entries named in this document (tags omitted). Chains listed by the source or under a name are the forms on record and can include a tag or linker.
UniProt P01887, other isoform, or with tags, fused parts or gaps, stated change not applied: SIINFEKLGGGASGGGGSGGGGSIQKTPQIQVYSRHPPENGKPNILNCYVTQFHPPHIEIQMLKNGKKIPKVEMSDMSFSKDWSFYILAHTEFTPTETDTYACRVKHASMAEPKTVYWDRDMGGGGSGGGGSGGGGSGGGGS

This assay addresses OVA.β2m.Kb SCT Y84A (mouse) (UniProt P01887). Kind of assay: cell-based or functional assay.

The substance VSV8 peptide returned a VSV8 concentration that activates the N15 hybridoma to the same level; 3KO cells of 1000 nM.
